Assay: Metabolic stability of GLP-2 derivatives in vivo in pigs (terminal plasma elimination half-life T½)
Conditions: pig, sc, female LYD crossbred pigs, subcutaneous injection, 0.5 nmol/kg, plasma analysed by ELISA
Method: Metabolic stability of selected GLP-2 derivatives. The degradation of GLP-2 derivatives in vivo in pigs have been studied and T½ value determined for selected GLP-2 derivatives according to the present invention (T½: Terminal plasma elimination half-life) (Table 9).
All test substances were dissolved in 20 mM phosphate buffer pH 7.4.
Female LYD crossbred pigs weighing 50-75 kg. were used. All test substances were dosed 0.5 nmol/kg. The dosing volume was approx. 1 ml per animal.
Subcutaneous injections were given at the right side of the neck approximately 7 cm from the ear and 9 cm from the middle of the neck. Injections were given with a stopper on the needle, allowing 0.5 cm of the needle to be inserted.
Blood samples were drawn from an ear vein catheter. The catheter was rinsed with heparin 50 IE/ml in physiological saline. During sampling the first ml blood drawn was discarded. Blood samples were kept on ice for no longer than 20 min. before centrifugation (4° C., 4000 rpm, 10 min). After centrifugation plasma was isolated and transferred to Micronic-tubes in duplo. The plasma samples were analysed by ELISA.

Point of comparison: CCCCCCCCCCCCCCCC(=O)N[C@@H](CCC(=O)NCCCC[C@H](NC(=O)[C@H](CC(N)=O)NC(=O)[C@H](CC(=O)O)NC(=O)[C@H](CC(C)C)NC(=O)[C@@H](NC(=O)[C@@H](NC(=O)[C@H](CC(N)=O)NC(=O)[C@H](CCSC)NC(=O)[C@H](CCC(=O)O)NC(=O)[C@H](CC(=O)O)NC(=O)[C@H](CO)NC(=O)[C@H](Cc1ccccc1)NC(=O)[C@H](CO)NC(=O)CNC(=O)[C@H](CCC(=O)O)NC(=O)[C@H](C)NC(=O)[C@@H](N)Cc1c[nH]cn1)[C@@H](C)O)[C@@H](C)CC)C(=O)N[C@@H](C)C(=O)N[C@@H](C)C(=O)N[C@@H](CCCNC(=N)N)C(=O)N[C@@H](CC(=O)O)C(=O)N[C@@H](Cc1ccccc1)C(=O)N[C@H](C(=O)N[C@@H](CC(N)=O)C(=O)N[C@@H](Cc1c[nH]c2ccccc12)C(=O)N[C@@H](CC(C)C)C(=O)N[C@H](C(=O)N[C@@H](CCC(N)=O)C(=O)N[C@H](C(=O)N[C@@H](CCCNC(=N)N)C(=O)N[C@H](C(=O)N[C@H](C(=O)N[C@@H](CCC(=O)O)C(=O)O)[C@@H](C)O)[C@@H](C)CC)[C@@H](C)O)[C@@H](C)CC)[C@@H](C)CC)C(=O)O, half-life 16.2 h. Against it:
- CCCCCCCCCCCCCCCC(=O)N[C@@H](CCC(=O)NCCCC[C@H](NC(=O)[C@H](CCSC)NC(=O)[C@H](CCC(=O)O)NC(=O)[C@H](CC(=O)O)NC(=O)[C@H](CO)NC(=O)[C@H](Cc1ccccc1)NC(=O)[C@H](CO)NC(=O)CNC(=O)[C@H](CCC(=O)O)NC(=O)[C@H](C)NC(=O)[C@@H](N)Cc1c[nH]cn1)C(=O)N[C@H](C(=O)N[C@H](C(=O)N[C@@H](CC(C)C)C(=O)N[C@@H](CC(=O)O)C(=O)N[C@@H](CC(N)=O)C(=O)N[C@@H](CC(C)C)C(=O)N[C@@H](C)C(=O)N[C@@H](C)C(=O)N[C@@H](CCCNC(=N)N)C(=O)N[C@@H](CC(=O)O)C(=O)N[C@@H](Cc1ccccc1)C(=O)N[C@H](C(=O)N[C@@H](CC(N)=O)C(=O)N[C@@H](Cc1c[nH]c2ccccc12)C(=O)N[C@@H](CC(C)C)C(=O)N[C@H](C(=O)N[C@@H](CCC(N)=O)C(=O)N[C@H](C(=O)N[C@@H](CCCNC(=N)N)C(=O)N[C@H](C(=O)N[C@H](C(=O)N[C@@H](CCC(=O)O)C(=O)O)[C@@H](C)O)[C@@H](C)CC)[C@@H](C)O)[C@@H](C)CC)[C@@H](C)CC)[C@@H](C)CC)[C@@H](C)O)C(=O)O — 3.3-fold higher, 53.1 h
- CCCCCCCCCCCCCCCC(=O)N[C@@H](CCC(=O)NCCCC[C@H](NC(=O)[C@H](Cc1ccccc1)NC(=O)[C@H](CO)NC(=O)CNC(=O)[C@H](CCC(=O)O)NC(=O)[C@H](C)NC(=O)[C@@H](N)Cc1c[nH]cn1)C(=O)N[C@@H](CC(=O)O)C(=O)N[C@@H](CCC(=O)O)C(=O)N[C@@H](CCSC)C(=O)N[C@@H](CC(N)=O)C(=O)N[C@H](C(=O)N[C@H](C(=O)N[C@@H](CC(C)C)C(=O)N[C@@H](CC(=O)O)C(=O)N[C@@H](CC(N)=O)C(=O)N[C@@H](CC(C)C)C(=O)N[C@@H](C)C(=O)N[C@@H](C)C(=O)N[C@@H](CCCNC(=N)N)C(=O)N[C@@H](CC(=O)O)C(=O)N[C@@H](Cc1ccccc1)C(=O)N[C@H](C(=O)N[C@@H](CC(N)=O)C(=O)N[C@@H](Cc1c[nH]c2ccccc12)C(=O)N[C@@H](CC(C)C)C(=O)N[C@H](C(=O)N[C@@H](CCC(N)=O)C(=O)N[C@H](C(=O)N[C@@H](CCCNC(=N)N)C(=O)N[C@H](C(=O)N[C@H](C(=O)N[C@@H](CCC(=O)O)C(=O)O)[C@@H](C)O)[C@@H](C)CC)[C@@H](C)O)[C@@H](C)CC)[C@@H](C)CC)[C@@H](C)CC)[C@@H](C)O)C(=O)O — 17-fold higher, 280 h
- CCCCCCCCCCCCCCCC(=O)N[C@@H](CCC(=O)NCCCC[C@H](NC(=O)[C@H](CC(N)=O)NC(=O)[C@H](CCSC)NC(=O)[C@H](CCC(=O)O)NC(=O)[C@H](CC(=O)O)NC(=O)[C@H](CO)NC(=O)[C@H](Cc1ccccc1)NC(=O)[C@H](CO)NC(=O)CNC(=O)[C@H](CCC(=O)O)NC(=O)[C@H](C)NC(=O)[C@@H](N)Cc1c[nH]cn1)C(=O)N[C@H](C(=O)N[C@@H](CC(C)C)C(=O)N[C@@H](CC(=O)O)C(=O)N[C@@H](CC(N)=O)C(=O)N[C@@H](CC(C)C)C(=O)N[C@@H](C)C(=O)N[C@@H](C)C(=O)N[C@@H](CCCNC(=N)N)C(=O)N[C@@H](CC(=O)O)C(=O)N[C@@H](Cc1ccccc1)C(=O)N[C@H](C(=O)N[C@@H](CC(N)=O)C(=O)N[C@@H](Cc1c[nH]c2ccccc12)C(=O)N[C@@H](CC(C)C)C(=O)N[C@H](C(=O)N[C@@H](CCC(N)=O)C(=O)N[C@H](C(=O)N[C@@H](CCCNC(=N)N)C(=O)N[C@H](C(=O)N[C@H](C(=O)N[C@@H](CCC(=O)O)C(=O)O)[C@@H](C)O)[C@@H](C)CC)[C@@H](C)O)[C@@H](C)CC)[C@@H](C)CC)[C@@H](C)CC)C(=O)O — 1.8-fold higher, 29.4 h
- CCCCCCCCCCCC(=O)NCCC(=O)NCCCC[C@H](NC(=O)[C@H](CC(N)=O)NC(=O)[C@H](CC(=O)O)NC(=O)[C@H](CC(C)C)NC(=O)[C@@H](NC(=O)[C@@H](NC(=O)[C@H](CC(N)=O)NC(=O)[C@H](CCSC)NC(=O)[C@H](CCC(=O)O)NC(=O)[C@H](CC(=O)O)NC(=O)[C@H](CO)NC(=O)[C@H](Cc1ccccc1)NC(=O)[C@H](CO)NC(=O)CNC(=O)[C@H](CC(=O)O)NC(=O)[C@H](C)NC(=O)[C@@H](N)Cc1c[nH]cn1)[C@@H](C)O)[C@@H](C)CC)C(=O)N[C@@H](C)C(=O)N[C@@H](C)C(=O)N[C@@H](CCCNC(=N)N)C(=O)N[C@@H](CC(=O)O)C(=O)N[C@@H](Cc1ccccc1)C(=O)N[C@H](C(=O)N[C@@H](CC(N)=O)C(=O)N[C@@H](Cc1c[nH]c2ccccc12)C(=O)N[C@@H](CC(C)C)C(=O)N[C@H](C(=O)N[C@@H](CCC(N)=O)C(=O)N[C@H](C(=O)N[C@@H](CCCNC(=N)N)C(=O)N[C@H](C(=O)N[C@H](C(=O)N[C@@H](CC(=O)O)C(=O)O)[C@@H](C)O)[C@@H](C)CC)[C@@H](C)O)[C@@H](C)CC)[C@@H](C)CC — 1.9-fold lower, 8.5 h
- CCCCCCCCCCCC(=O)NCCCC(=O)NCCCC[C@H](NC(=O)[C@H](CC(N)=O)NC(=O)[C@H](CC(=O)O)NC(=O)[C@H](CC(C)C)NC(=O)[C@@H](NC(=O)[C@@H](NC(=O)[C@H](CC(N)=O)NC(=O)[C@H](CCSC)NC(=O)[C@H](CCC(=O)O)NC(=O)[C@H](CC(=O)O)NC(=O)[C@H](CO)NC(=O)[C@H](Cc1ccccc1)NC(=O)[C@H](CO)NC(=O)CNC(=O)[C@H](CC(=O)O)NC(=O)[C@H](C)NC(=O)[C@@H](N)Cc1c[nH]cn1)[C@@H](C)O)[C@@H](C)CC)C(=O)N[C@@H](C)C(=O)N[C@@H](C)C(=O)N[C@@H](CCCNC(=N)N)C(=O)N[C@@H](CC(=O)O)C(=O)N[C@@H](Cc1ccccc1)C(=O)N[C@H](C(=O)N[C@@H](CC(N)=O)C(=O)N[C@@H](Cc1c[nH]c2ccccc12)C(=O)N[C@@H](CC(C)C)C(=O)N[C@H](C(=O)N[C@@H](CCC(N)=O)C(=O)N[C@H](C(=O)N[C@@H](CCCNC(=N)N)C(=O)N[C@H](C(=O)N[C@H](C(=O)N[C@@H](CC(=O)O)C(=O)O)[C@@H](C)O)[C@@H](C)CC)[C@@H](C)O)[C@@H](C)CC)[C@@H](C)CC — 7-fold lower, 2.3 h
- CCCCCCCCCCCCCCCC(=O)NCCCC(=O)NCCCC[C@H](NC(=O)[C@H](CC(N)=O)NC(=O)[C@H](CC(=O)O)NC(=O)[C@H](CC(C)C)NC(=O)[C@@H](NC(=O)[C@@H](NC(=O)[C@H](CC(N)=O)NC(=O)[C@H](CCSC)NC(=O)[C@H](CCC(=O)O)NC(=O)[C@H](CC(=O)O)NC(=O)[C@H](CO)NC(=O)[C@H](Cc1ccccc1)NC(=O)[C@H](CO)NC(=O)CNC(=O)[C@H](CC(=O)O)NC(=O)[C@H](C)NC(=O)[C@@H](N)Cc1c[nH]cn1)[C@@H](C)O)[C@@H](C)CC)C(=O)N[C@@H](C)C(=O)N[C@@H](C)C(=O)N[C@@H](CCCNC(=N)N)C(=O)N[C@@H](CC(=O)O)C(=O)N[C@@H](Cc1ccccc1)C(=O)N[C@H](C(=O)N[C@@H](CC(N)=O)C(=O)N[C@@H](Cc1c[nH]c2ccccc12)C(=O)N[C@@H](CC(C)C)C(=O)N[C@H](C(=O)N[C@@H](CCC(N)=O)C(=O)N[C@H](C(=O)N[C@@H](CCCNC(=N)N)C(=O)N[C@H](C(=O)N[C@H](C(=O)N[C@@H](CC(=O)O)C(=O)O)[C@@H](C)O)[C@@H](C)CC)[C@@H](C)O)[C@@H](C)CC)[C@@H](C)CC — 4.3-fold lower, 3.8 ± 0.6 h
- CCCCCCCCCCCCCC(=O)NCCCC(=O)NCCCC[C@H](NC(=O)[C@H](CC(N)=O)NC(=O)[C@H](CC(=O)O)NC(=O)[C@H](CC(C)C)NC(=O)[C@@H](NC(=O)[C@@H](NC(=O)[C@H](CC(N)=O)NC(=O)[C@H](CCSC)NC(=O)[C@H](CCC(=O)O)NC(=O)[C@H](CC(=O)O)NC(=O)[C@H](CO)NC(=O)[C@H](Cc1ccccc1)NC(=O)[C@H](CO)NC(=O)CNC(=O)[C@H](CC(=O)O)NC(=O)[C@H](C)NC(=O)[C@@H](N)Cc1c[nH]cn1)[C@@H](C)O)[C@@H](C)CC)C(=O)N[C@@H](C)C(=O)N[C@@H](C)C(=O)N[C@@H](CCCNC(=N)N)C(=O)N[C@@H](CC(=O)O)C(=O)N[C@@H](Cc1ccccc1)C(=O)N[C@H](C(=O)N[C@@H](CC(N)=O)C(=O)N[C@@H](Cc1c[nH]c2ccccc12)C(=O)N[C@@H](CC(C)C)C(=O)N[C@H](C(=O)N[C@@H](CCC(N)=O)C(=O)N[C@H](C(=O)N[C@@H](CCCNC(=N)N)C(=O)N[C@H](C(=O)N[C@H](C(=O)N[C@@H](CC(=O)O)C(=O)O)[C@@H](C)O)[C@@H](C)CC)[C@@H](C)O)[C@@H](C)CC)[C@@H](C)CC — 3.6-fold lower, 4.5 ± 2.4 h
